From patent publication US20240199576A1, “NOVEL CYCLOPENTA[C]PYRROL NEGATIVE ALLOSTERIC MODULATORS OF NR2B” (Novartis AG, priority 2021, published 2024) come the findings set out here.

Chains of the proteins cited; added tags and fusions are not shown. Residues count along the entry.
UniProt Q00960, 27-1482 limits assumed: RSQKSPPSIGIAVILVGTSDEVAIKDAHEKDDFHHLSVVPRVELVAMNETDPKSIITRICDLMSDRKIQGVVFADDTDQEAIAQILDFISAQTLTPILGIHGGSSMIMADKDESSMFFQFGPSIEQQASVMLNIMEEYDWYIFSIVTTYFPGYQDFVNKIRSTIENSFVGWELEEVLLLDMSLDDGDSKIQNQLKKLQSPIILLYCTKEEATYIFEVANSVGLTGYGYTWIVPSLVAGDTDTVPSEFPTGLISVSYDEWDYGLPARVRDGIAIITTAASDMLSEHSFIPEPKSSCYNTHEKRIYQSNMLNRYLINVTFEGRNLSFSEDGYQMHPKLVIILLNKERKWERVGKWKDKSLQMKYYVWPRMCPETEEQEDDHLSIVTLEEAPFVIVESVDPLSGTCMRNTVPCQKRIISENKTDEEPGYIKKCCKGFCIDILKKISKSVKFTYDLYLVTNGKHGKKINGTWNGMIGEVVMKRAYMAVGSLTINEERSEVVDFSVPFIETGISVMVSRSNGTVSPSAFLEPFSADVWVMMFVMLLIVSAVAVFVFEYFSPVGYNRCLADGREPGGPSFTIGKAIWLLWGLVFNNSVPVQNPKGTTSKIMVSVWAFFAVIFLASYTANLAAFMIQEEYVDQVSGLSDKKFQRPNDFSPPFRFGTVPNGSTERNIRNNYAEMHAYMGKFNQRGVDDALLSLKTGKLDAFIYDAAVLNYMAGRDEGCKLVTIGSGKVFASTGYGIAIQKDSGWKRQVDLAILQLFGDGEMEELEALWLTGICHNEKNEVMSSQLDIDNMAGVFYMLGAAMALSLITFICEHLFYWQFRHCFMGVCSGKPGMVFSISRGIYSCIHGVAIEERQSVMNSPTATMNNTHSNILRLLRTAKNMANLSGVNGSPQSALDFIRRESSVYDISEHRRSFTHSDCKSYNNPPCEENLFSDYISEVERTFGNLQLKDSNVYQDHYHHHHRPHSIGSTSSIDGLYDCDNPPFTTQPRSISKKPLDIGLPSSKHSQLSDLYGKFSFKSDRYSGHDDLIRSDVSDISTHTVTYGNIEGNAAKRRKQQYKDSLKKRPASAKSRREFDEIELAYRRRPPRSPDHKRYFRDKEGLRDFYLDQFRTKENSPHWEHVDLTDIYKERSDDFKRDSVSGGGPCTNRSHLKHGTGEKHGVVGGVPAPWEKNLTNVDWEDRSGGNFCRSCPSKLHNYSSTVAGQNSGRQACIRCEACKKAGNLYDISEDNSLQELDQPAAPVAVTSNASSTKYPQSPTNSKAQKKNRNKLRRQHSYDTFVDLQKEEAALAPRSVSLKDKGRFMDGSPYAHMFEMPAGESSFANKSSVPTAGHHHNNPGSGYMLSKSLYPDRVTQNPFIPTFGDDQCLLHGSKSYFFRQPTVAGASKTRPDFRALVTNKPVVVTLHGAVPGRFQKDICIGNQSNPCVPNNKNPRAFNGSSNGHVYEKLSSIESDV

Each structure is given as a SMILES string. pIC50: −log10 of the molar value.

The assay addresses NR2B (Rattus norvegicus (Rat), UniProt Q00960). Kind of assay: NR2B rat cortical neuron calcium influx assay. As to conditions: rat cortical neurons, glutamate and glycine stimulated calcium influx, 2 hours compound incubation.
For `Oc1ccc(CCN2CC3CC(Oc4ncccc4F)CC3(O)C2)cc1` (single isomer, unassigned) [Example 17A], the pIC50 is 7.28.
Consider `Oc1ccc(C(O)CN2CC3CC(Oc4ccccc4)CC3(O)C2)nc1` (single isomer, unassigned) [Example 7A], for which the negative logarithm of the IC50 (pIC50) was 7.40.
For `Oc1c(F)cc(CCN2CC3CC(Oc4ccccc4)CC3(O)C2)cc1F` (single isomer, unassigned) [Example 16B], the pIC50 is 6.28.
As to `Oc1c(F)cc(C(O)CN2CC3CC(Oc4ccccc4F)C(O)C3(O)C2)cc1F` (single isomer, unassigned) [Example 6B], the negative-log IC50 (pIC50) was 7.08.
In the case of `Oc1c(F)cc(C(O)CN2CC3CC(Oc4ccccc4F)CC3(O)C2)cc1F` (single isomer, unassigned) [Example 8B] it was 5.44.
For `Oc1c(F)cc(C(O)CN2CC3CC(Oc4ccccc4F)C(O)C3(O)C2)cc1F` (single isomer, unassigned) [Example 6C], the pIC50 was 8.26.
To `Oc1ccc(CCN2CC3CC(Oc4ncccc4F)CC3(O)C2)cc1` (single isomer, unassigned) [Example 17B] belongs 5.92; to `Oc1ccc(C(O)CN2CC3CC(Oc4ccccc4)CC3(O)C2)nc1F` (single isomer, unassigned) [Example 9B], below 5.00.
Turning to `Oc1ccc(CCN2CC3CC(Oc4cccnc4F)CC3(O)C2)cc1` (single isomer, unassigned) [Example 18B], the negative-log IC50 (pIC50) is 5.40.
For the compound `Oc1ccc(C(O)CN2C[C@H]3C[C@H](Oc4ccccc4)[C@H](O)[C@@]3(O)C2)nc1F` (single isomer, unassigned), the negative-log IC50 (pIC50) was 6.85.
Take `Oc1c(F)cc(CCN2CC3CC(Oc4ccc(F)cc4F)CC3(O)C2)cc1F` (single isomer, unassigned) [Example 15A]: the pIC50 was 7.72.
As for `Oc1c(F)cc(CCN2CC3CC(Oc4ccc(F)cc4F)CC3(O)C2)cc1F` (single isomer, unassigned) [Example 15B], the negative logarithm of the IC50 (pIC50) is 5.85.
Turning to `Oc1c(F)cc(C(O)CN2CC3CC(Oc4ccccc4F)C(O)C3(O)C2)cc1F` (single isomer, unassigned) [Example 6A], the negative logarithm of the IC50 (pIC50) was 5.82.
As to `Oc1c(F)cc(C(O)CN2CC3CC(Oc4ccc(F)cc4F)CC3(O)C2)cc1F` (centres unmarked), the pIC50 was 6.82.
Consider `Oc1c(F)cc(C(O)CN2CC3CC(Oc4ccccc4)CC3(O)C2)cc1F` (single isomer, unassigned) [Example 10B], for which the pIC50 was 5.77.
To `Oc1ccc(C(O)CN2CC3CC(Oc4ccccc4)CC3(O)C2)nc1` (single isomer, unassigned) [Example 7B] belongs 5.80; to `Oc1ccc(C(O)CN2CC3CC(Oc4ccccc4)CC3(O)C2)nc1F` (single isomer, unassigned) [Example 9D], 8.05.
Consider `Oc1c(F)cc(C(O)CN2CC3CC(Oc4ccccc4F)CC3(O)C2)cc1F` (single isomer, unassigned) [Example 8C], for which the negative-log IC50 (pIC50) was 8.09.
As for `Oc1ccc(C(O)CN2CC3CC(Oc4ccc(F)cc4F)CC3(O)C2)cc1` (centres unmarked), the pIC50 is 7.39.
As to `Oc1ccc(C(O)CN2C[C@H]3C[C@H](Oc4ccccc4)C[C@@]3(O)C2)nc1Cl` (single isomer, unassigned) [Example 11B], the pIC50 was 7.85.
Consider `Oc1ccc(CCN2CC3CC(Oc4cccnc4F)CC3(O)C2)cc1` (single isomer, unassigned) [Example 18A], for which the negative-log IC50 (pIC50) was 6.24.
Take `Oc1c(F)cc(CCN2CC3CC(Oc4ccccc4)CC3(O)C2)cc1F` (single isomer, unassigned) [Example 16A]: the negative logarithm of the IC50 (pIC50) is 7.39.
Consider `Oc1ccc(C(O)CN2C[C@@H]3C[C@@H](Oc4ccccc4)[C@@H](O)[C@]3(O)C2)nc1F` (single isomer, unassigned), for which the pIC50 is below 5.00.
To `Oc1ccc(C(O)CN2C[C@H]3C[C@H](Oc4ccccc4)C[C@@]3(O)C2)nc1Cl` (single isomer, unassigned) [Example 11A] belongs 8.46; to `Oc1c(F)cc(C(O)CN2CC3CC(Oc4ccccc4)CC3(O)C2)cc1F` (single isomer, unassigned) [Example 10A], 6.82; to `Oc1ccc(C(O)CN2CC3CC(Oc4ccccc4F)CC3(O)C2)nc1` (single isomer, unassigned) [Example 1A], 7.13.
For the compound `Oc1c(F)cc(C(O)CN2CC3CC(Oc4ccccc4F)CC3(O)C2)cc1F` (single isomer, unassigned) [Example 8A], the negative-log IC50 (pIC50) was 6.85.
`Oc1ccc(C(O)CN2CC3CC(Oc4ccccc4)CC3(O)C2)nc1F` (single isomer, unassigned) [Example 9C]: the pIC50 was 7.89.
In the case of `Oc1c(F)cc(C(O)CN2CC3CC(Oc4ccccc4F)CC3(O)C2)cc1F` (single isomer, unassigned) [Example 8D] it was 8.55; in that of `Oc1c(F)cc(CCN2CC3CC(Oc4ccccc4F)CC3(O)C2)cc1F` (single isomer, unassigned) [Example 14B], 6.68; in that of `Oc1c(F)cc(CCN2CC3CC(Oc4ccccc4F)CC3(O)C2)cc1F` (single isomer, unassigned) [Example 14A], 8.05.
Regarding `Oc1c(F)cc(C(O)CN2C[C@H]3C[C@H](Oc4ccccc4)[C@H](O)[C@@]3(O)C2)cc1F` (single isomer, unassigned), the pIC50 is 6.62.
Take `Oc1ccc(C(O)CN2CC3CC(Oc4ccccc4)CC3(O)C2)nc1F` (single isomer, unassigned) [Example 9A]: the negative logarithm of the IC50 (pIC50) was 6.23.
As to `Oc1ccc(C(O)CN2CC3CC(Oc4ccccc4F)CC3(O)C2)nc1` (single isomer, unassigned) [Example 1D], the pIC50 was 7.96.
On to `Oc1c(F)cc(C(O)CN2CC3CC(Oc4ccccc4F)C(O)C3(O)C2)cc1F` (single isomer, unassigned) [Example 6D], for which the pIC50 was 6.03.

The term pIC50 denotes the negative decadic logarithm of the IC50, by convention in mol/L.
